Literature values, collected in patent US20220023244A1, “FORMULATION FOR TOPICAL TREATMENT OF ACUTE WOUNDS” (priority 2020, published 2022).

## CC[C@H](C)[C@H](NC(=O)CN)C(=O)NCC(=O)N[C@@H](C)C(=O)N[C@H](C(=O)N[C@@H](CC(C)C)C(=O)N[C@@H](CCCCN)C(=O)N[C@H](C(=O)N[C@@H](CC(C)C)C(=O)N[C@H](C(=O)N[C@H](C(=O)NCC(=O)N[C@@H](CC(C)C)C(=O)N1CCC[C@H]1C(=O)N[C@@H](C)C(=O)N[C@@H](CC(C)C)C(=O)N[C@H](C(=O)N[C@@H](CO)C(=O)N[C@@H](Cc1c[nH]c2ccccc12)C(=O)N[C@H](C(=O)N[C@@H](CCCCN)C(=O)N[C@@H](CCCNC(=N)N)C(=O)N[C@@H](CCCCN)C(=O)N[C@@H](CCCNC(=N)N)C(=O)N[C@@H](CCC(N)=O)C(=O)N[C@@H](CCC(N)=O)C(N)=O)[C@@H](C)CC)[C@@H](C)CC)[C@@H](C)O)[C@@H](C)O)C(C)C)C(C)C [melittin]
  aqueous solubility: high
